Results published in ChEMBL document CHEMBL1909046, “DrugMatrix in vitro pharmacology data”.

Amino acid sequences for entries named in this document (tags omitted). A change or cut given only in a name is not applied to a line headed by its entry.
UniProt P41597: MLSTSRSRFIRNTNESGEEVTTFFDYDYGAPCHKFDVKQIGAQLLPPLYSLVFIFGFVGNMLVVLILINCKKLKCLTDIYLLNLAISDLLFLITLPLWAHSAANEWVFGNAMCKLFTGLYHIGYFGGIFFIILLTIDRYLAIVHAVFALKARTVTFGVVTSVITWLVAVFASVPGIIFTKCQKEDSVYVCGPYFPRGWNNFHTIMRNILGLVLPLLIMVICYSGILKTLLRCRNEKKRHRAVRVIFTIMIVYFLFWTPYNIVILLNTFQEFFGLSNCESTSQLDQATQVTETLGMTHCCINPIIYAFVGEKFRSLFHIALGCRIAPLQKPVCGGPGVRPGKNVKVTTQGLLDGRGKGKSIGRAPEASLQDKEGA
UniProt P08684, whole entry: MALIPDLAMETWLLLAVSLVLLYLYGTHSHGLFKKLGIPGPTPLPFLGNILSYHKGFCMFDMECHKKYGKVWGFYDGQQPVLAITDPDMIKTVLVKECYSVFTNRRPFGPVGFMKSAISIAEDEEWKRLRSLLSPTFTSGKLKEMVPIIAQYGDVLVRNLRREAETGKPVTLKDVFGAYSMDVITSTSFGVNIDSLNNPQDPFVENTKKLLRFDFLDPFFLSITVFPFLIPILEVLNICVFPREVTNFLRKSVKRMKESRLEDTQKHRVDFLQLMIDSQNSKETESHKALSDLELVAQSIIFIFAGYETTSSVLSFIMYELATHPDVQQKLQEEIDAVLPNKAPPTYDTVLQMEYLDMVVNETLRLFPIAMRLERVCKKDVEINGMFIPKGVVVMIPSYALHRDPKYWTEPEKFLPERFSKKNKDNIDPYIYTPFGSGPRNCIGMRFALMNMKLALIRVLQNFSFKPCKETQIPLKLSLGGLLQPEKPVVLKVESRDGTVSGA
UniProt P21397, whole entry: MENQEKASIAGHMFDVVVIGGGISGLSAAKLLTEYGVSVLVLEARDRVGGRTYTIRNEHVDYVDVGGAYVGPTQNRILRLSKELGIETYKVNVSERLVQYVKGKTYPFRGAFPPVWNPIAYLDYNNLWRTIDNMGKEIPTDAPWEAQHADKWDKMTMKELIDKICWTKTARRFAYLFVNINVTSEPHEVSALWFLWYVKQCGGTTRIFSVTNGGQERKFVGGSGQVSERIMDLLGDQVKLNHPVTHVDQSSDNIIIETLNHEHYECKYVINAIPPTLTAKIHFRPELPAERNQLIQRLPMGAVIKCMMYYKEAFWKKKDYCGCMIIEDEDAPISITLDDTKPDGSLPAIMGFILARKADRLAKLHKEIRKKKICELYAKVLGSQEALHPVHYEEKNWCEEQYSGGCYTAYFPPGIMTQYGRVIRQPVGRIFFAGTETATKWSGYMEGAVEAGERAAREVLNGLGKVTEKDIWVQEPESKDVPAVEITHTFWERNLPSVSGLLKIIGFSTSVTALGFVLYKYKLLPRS

How the values were obtained:
[1] = target: C-C chemokine receptor type 2 (Homo sapiens, UniProt P41597); assay type: cell membranes, Membrane; conditions: cho-k1; note: in other assays of this panel Not Active means under 50% inhibition at 10 µM
Cytochrome P450 3A4 = Cytochrome P450 3A4 (Homo sapiens, UniProt P08684); conditions: bti-tn-5b1-4; note: in other assays of this panel Not Active means under 50% inhibition at 10 µM
[2] = target: Amine oxidase [flavin-containing] A (Homo sapiens, UniProt P21397); test: DRUGMATRIX: Monoamine Oxidase MAO-A enzyme inhibition (substrate: Kynuramine); conditions: bti-tn-5b1-4; Not Active = under 50% inhibition at 10 µM

Row | Compound | IC50 [1] | also measured
1 | CCCCC(=O)N(Cc1ccc(-c2ccccc2-c2nnn[nH]2)cc1)[C@H](C(=O)O)C(C)C | Not Active | –
2 | CCC(C)n1ncn(-c2ccc(N3CCN(c4ccc(OCC5COC(Cn6cncn6)(c6ccc(Cl)cc6Cl)O5)cc4)CC3)cc2)c1=O (centres undefined) [ITRACONAZOLE] | – | Ki (Cytochrome P450 3A4): Note: corresponding IC50 reported as Active
3 | CCCCc1nc(Cl)c(CO)n1Cc1ccc(-c2ccccc2-c2nnn[nH]2)cc1 [LOSARTAN] | Not Active | –
4 | NNCCc1ccccc1 [PHENELZINE] | – | Ki [2]: Note: corresponding IC50 reported as Active
